Values quoted from earlier work, collected in patent US20030139469A1, “Use of inhibitors of soluble epoxide hydrolase to inhibit vascular smooth muscle cell proliferation” (THE REGENTS OF THE UNIVERSITY OF CALIFORNIA, priority 2002, published 2003).

Sequences of proteins named here, by UniProt entry; tags and fusion partners are left off. A change or cut given only in a name is not applied to a line headed by its entry.
UniProt P34914: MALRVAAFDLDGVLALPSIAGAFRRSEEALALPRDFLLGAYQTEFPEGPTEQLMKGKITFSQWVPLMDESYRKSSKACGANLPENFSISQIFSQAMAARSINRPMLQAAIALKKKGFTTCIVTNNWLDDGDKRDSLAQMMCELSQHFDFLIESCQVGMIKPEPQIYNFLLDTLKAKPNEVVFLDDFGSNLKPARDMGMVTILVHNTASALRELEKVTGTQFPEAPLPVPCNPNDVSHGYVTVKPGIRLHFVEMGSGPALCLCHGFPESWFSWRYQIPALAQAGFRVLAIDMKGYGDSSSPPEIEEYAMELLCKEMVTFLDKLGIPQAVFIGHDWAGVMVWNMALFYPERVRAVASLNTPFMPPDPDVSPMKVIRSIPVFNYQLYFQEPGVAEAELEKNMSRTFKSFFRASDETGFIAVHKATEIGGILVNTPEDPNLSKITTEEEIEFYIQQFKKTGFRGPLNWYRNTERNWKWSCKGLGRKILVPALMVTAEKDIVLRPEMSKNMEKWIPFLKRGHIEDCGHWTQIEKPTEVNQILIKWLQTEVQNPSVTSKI
UniProt P80299: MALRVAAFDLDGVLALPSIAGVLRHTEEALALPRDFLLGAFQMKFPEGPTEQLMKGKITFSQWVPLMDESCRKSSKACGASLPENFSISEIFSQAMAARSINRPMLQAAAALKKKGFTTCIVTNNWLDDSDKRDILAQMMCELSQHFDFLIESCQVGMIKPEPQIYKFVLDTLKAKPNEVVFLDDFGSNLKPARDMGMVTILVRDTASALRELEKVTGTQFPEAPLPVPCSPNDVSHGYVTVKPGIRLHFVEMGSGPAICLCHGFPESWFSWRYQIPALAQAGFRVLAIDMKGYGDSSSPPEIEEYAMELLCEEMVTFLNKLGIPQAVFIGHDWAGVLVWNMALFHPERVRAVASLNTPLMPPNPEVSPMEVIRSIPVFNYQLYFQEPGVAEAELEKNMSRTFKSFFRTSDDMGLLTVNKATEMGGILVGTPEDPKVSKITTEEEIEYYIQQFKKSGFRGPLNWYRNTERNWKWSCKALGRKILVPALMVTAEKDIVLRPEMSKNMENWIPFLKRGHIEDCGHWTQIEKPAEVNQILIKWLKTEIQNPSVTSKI

Key:
sEH [1] = target: sEH (Mus musculus, UniProt P34914); conditions: mice injected with DCU; cited from earlier work
sEH [2] = target: sEH (Rattus norvegicus, UniProt P80299); conditions: spontaneously hypertensive rats; cited from earlier work

## O=C(NC1CCCCC1)NC1CCCCC1 [DCU, N,N′-dicyclohexylurea]
sEH [1]
  EET levels: accumulation of EETs
sEH [2]
  urinary 14,15-EET: increase
  urinary DHET: decrease
